US11628225B2, “Antibody-drug conjugates” (CHO PHARMA INC., priority 2016, dated 2023)

Tested on: BT474 cells
Experiment: Cytotoxicity assay (CellTiter-Glo, 5 d) in BT474 cells
Assay type: cell-based
Settings: BT474, FIG. 9, tested concentrations

TRZ: IgG 1κ anti-HER2 trastuzumab TRZ; Herceptin, Roche (native Herceptin)
cytotoxicity: minimal cytotoxicity
